Data from patent US20220079924A1, “GLUCOCORTICOID RECEPTOR MODULATORS” (ORIC Pharmaceuticals, Inc., priority 2018, published 2022).

Protein sequences, listed by entry. Tags and fused reporters are not part of them.
UniProt P04150, whole entry: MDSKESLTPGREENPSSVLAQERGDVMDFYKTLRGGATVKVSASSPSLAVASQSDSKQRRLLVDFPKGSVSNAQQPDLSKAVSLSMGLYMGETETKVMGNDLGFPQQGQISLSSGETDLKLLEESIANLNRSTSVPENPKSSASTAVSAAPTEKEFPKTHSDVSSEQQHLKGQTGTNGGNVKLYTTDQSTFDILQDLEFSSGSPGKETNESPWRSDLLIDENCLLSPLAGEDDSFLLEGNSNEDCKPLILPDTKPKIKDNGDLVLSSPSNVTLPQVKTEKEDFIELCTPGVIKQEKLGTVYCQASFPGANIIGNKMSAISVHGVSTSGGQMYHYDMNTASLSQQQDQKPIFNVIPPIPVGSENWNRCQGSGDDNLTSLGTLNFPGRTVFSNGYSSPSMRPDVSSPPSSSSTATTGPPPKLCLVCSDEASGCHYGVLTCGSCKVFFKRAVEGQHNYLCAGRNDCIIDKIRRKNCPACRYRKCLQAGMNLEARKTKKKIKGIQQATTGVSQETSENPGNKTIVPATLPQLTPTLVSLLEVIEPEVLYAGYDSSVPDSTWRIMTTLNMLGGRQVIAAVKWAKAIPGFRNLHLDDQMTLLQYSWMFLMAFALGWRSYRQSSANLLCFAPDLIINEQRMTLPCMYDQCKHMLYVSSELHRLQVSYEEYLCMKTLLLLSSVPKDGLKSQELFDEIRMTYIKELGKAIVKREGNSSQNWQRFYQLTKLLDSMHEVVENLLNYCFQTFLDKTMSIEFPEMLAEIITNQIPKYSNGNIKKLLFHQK

Target: GR (Homo sapiens, UniProt P04150)
Experiment: In Vitro GR Luciferase Reporter Assay (antagonist assay)
Conditions: read-out: GR IC50, CHO-K1-GR-MMTV-Luc reporter cells, 10 nM Dexamethasone, 18-24 hours
Experimental: Example A: In Vitro GR Luciferase Reporter Assay
Cell Line: CHO-K1-GR-MMTV-Luc reporter cells
Culture Media: DMEM (with phenol red)+10% FBS
Assay Media: DMEM (without phenol red)+10% CSS
Culture CHO-K1-GR-MMTV-Luc reporter cells in T175 flasks in Culture Media at conditions less than 90% confluence.
Using Bravo (Agilent) liquid handler:
200× DMSO 1:3 serial dilutions of control and test compounds in 96-well non-sterile V bottom plate in DMSO, 12 points for each compound were prepared.
Prepared 5× compound serial dilutions: Add 97.5 μL/well of Assay Media into 96-well non-sterile V bottom plate then added 2.5 ul of 200× concentration of compounds and mix well.
Seeded cells for Antagonist Assay: 5200 CHO-K1-GR-MMTV-Luc reporter cells were seeded in Greiner #781080 flat clear bottom 384-well white TC plate in 20 ul of Assay Media containing 12.5 nM Dexamethasone (final concentration=10 nM). […]
Read plates: Equilibrate appropriate amount of Promega OneGlo luciferase reagent to room temperature. Remove the plates from incubator and add 25 uL of OneGlo reagent/well by Bravo and read the plates on Tecan Spark plate reader within 15 minutes.
The ability of the compounds disclosed herein to inhibit GR activity was quantified and the respective IC50 value was determined. […]

Cn1cnc(S(=O)(=O)N(C2CC2)[C@H]2CCC3=Cc4c(cnn4C4CCOCC4)C[C@]3(C(=O)c3cc(C(F)(F)F)ccn3)C2)n1
IC50: 100 to 1000 nM
